Legend:
Assay in all cases: Kinase profiling in a biochemical assay panel (mobility shift assays and ELISA), %-inhibition at 1 μM; selectivity entropy
Details in all cases: 1 µM
[1] = target: panel of more than 300 wild-type and mutant kinases (313 kinase panel) (Homo sapiens, UniProt P43405)
[2] = target: panel of more than 300 wild-type and mutant kinases (313 kinase panel) (Homo sapiens, UniProt O00444)
[3] = target: panel of more than 300 wild-type and mutant kinases (313 kinase panel) (Homo sapiens, UniProt P53778)
[4] = target: panel of more than 300 wild-type and mutant kinases (313 kinase panel) (Homo sapiens, UniProt Q14012)
[5] = target: panel of more than 300 wild-type and mutant kinases (313 kinase panel) (Homo sapiens, UniProt P09619)
[6] = target: panel of more than 300 wild-type and mutant kinases (313 kinase panel) (Homo sapiens, UniProt Q9UM73, R1275Q)
[7] = target: panel of more than 300 wild-type and mutant kinases (313 kinase panel) (Homo sapiens, UniProt P17252)
[8] = target: panel of more than 300 wild-type and mutant kinases (313 kinase panel) (Homo sapiens, UniProt Q8N4C8)
[9] = target: panel of more than 300 wild-type and mutant kinases (313 kinase panel) (Homo sapiens, UniProt P22455, V550E)
[10] = target: panel of more than 300 wild-type and mutant kinases (313 kinase panel) (Homo sapiens, UniProt P22612)
[11] = target: panel of more than 300 wild-type and mutant kinases (313 kinase panel) (Homo sapiens, UniProt Q96GD4)
[12] = target: panel of more than 300 wild-type and mutant kinases (313 kinase panel) (Homo sapiens, UniProt P00519, T315I)
[13] = target: panel of more than 300 wild-type and mutant kinases (313 kinase panel) (Homo sapiens, UniProt P07333)
[14] = target: panel of more than 300 wild-type and mutant kinases (313 kinase panel) (Homo sapiens, UniProt P05129)
[15] = target: panel of more than 300 wild-type and mutant kinases (313 kinase panel) (Homo sapiens, UniProt Q96RG2)
[16] = target: panel of more than 300 wild-type and mutant kinases (313 kinase panel) (Homo sapiens, UniProt Q9HBH9)
[17] = target: panel of more than 300 wild-type and mutant kinases (313 kinase panel) (Homo sapiens, UniProt P08631)
[18] = target: panel of more than 300 wild-type and mutant kinases (313 kinase panel) (Homo sapiens, UniProt Q96PF2)
[19] = target: panel of more than 300 wild-type and mutant kinases (313 kinase panel) (Homo sapiens, UniProt P00519, E255K)
[20] = target: panel of more than 300 wild-type and mutant kinases (313 kinase panel) (Homo sapiens, UniProt O15146)
[21] = target: panel of more than 300 wild-type and mutant kinases (313 kinase panel) (Homo sapiens, UniProt P48729)
[22] = target: panel of more than 300 wild-type and mutant kinases (313 kinase panel) (Homo sapiens, UniProt P41279)
[23] = target: panel of more than 300 wild-type and mutant kinases (313 kinase panel) (Homo sapiens, UniProt O14733)

## COc1cc2ncnc(Nc3ccc(F)c(Cl)c3)c2cc1OCCCN1CCOCC1 [gefitinib]
[1]
  %-inhibition of SYK: 5%
[2]
  %-inhibition of PLK4: 7%
[3]
  %-inhibition of p38γ: 2.65%
[4]
  %-inhibition, CaMK1α: 2%
[5]
  %-inhibition of PDGFRβ: 57%

## C[C@@H]1CCN(C(=O)CC#N)C[C@@H]1N(C)c1ncnc2[nH]ccc12 [tofacitinib]
[6]
  %-inhibition, ALK(R1275Q): 2.84%
[7]
  %-inhibition of PKCα: 11%
[8]
  %-inhibition of MINK: -1.35%
[9]
  %-inhibition of FGFR4(V550E): -0.834%
[10]
  %-inhibition of PKACγ: -1.84%
[11]
  %-inhibition, AurB: -5.3%
[12]
  %-inhibition, ABL(T315I): 5.45%
[13]
  %-inhibition of FMS: 6%
[14]
  %-inhibition of PKCγ: 0.662%
[15]
  %-inhibition of PASK: -1.41%
[16]
  %-inhibition of MNK2: 3.71%
[17]
  %-inhibition of HCK: 0.159%
[18]
  %-inhibition of TSSK2: -10%
[19]
  %-inhibition, ABL(E255K): -3.76%
[20]
  %-inhibition of MUSK: 1%
[21]
  %-inhibition, CK1α: -10%
[22]
  %-inhibition of COT: 6%
[23]
  %-inhibition of MAP2K7: 3%

From article PMC3961306, “Comparison of the Cancer Gene Targeting and Biochemical Selectivities of All Targeted Kinase Inhibitors Approved for Clinical Use” (PLoS ONE, 2014)
